The numbers were not newly measured in patent US7115574B2, “System and method for support legacy operating system booting in a legacy-free system” (priority 2001, dated 2006), which cites them from elsewhere.

The conditions of this data set: Lipton and Catania, Immunol. Today 1997; cited from earlier work.

In the case of “Ac-Lys-Pro-Val-NH2 (KPV; N-acetyl, C-amide; Designed polypeptide with anti-inflammatory, anti-bacterial, anti-fungal and antipyretic properties.) [α-MSH(11-13)]”, the toxicity result is listed as “very low toxicity”.
